{"source": "ChEMBL document CHEMBL4819145", "about": "“Synthesis and evaluation of bifunctional PTP4A3 phosphatase inhibitors activating the ER stress pathway” (Bioorg Med Chem Lett, 2021)", "tested_on": "MDA-MB-231", "assay": "cells", "conditions": "Homo sapiens, MDA-MB-231, 72 h"}
{"compound": "N=C1C(=O)NC(=O)c2cc(-c3ccc(OCCCCNC(=O)CC45CC6CC(CC(C6)C4)C5)cc3)sc21", "values": [{"measurement": "EC50", "result": 8.6, "unit": "µM"}]}
